The target of the test is CteC_(36–276) (Chromobacterium violaceum) (UniProt Q7NY09). As to the kind of experiment: ITC; MicroCal PEAQ-ITC; 480 μM CteC construct titrated with 4.8 mM Ub; 50 mM Hepes pH 7.3, 100 mM NaCl.

Sequences of proteins named here, by UniProt entry; tags and fusion partners are left off. Residues count along the entry.
UniProt Q7NY09, 36-276 limits assumed: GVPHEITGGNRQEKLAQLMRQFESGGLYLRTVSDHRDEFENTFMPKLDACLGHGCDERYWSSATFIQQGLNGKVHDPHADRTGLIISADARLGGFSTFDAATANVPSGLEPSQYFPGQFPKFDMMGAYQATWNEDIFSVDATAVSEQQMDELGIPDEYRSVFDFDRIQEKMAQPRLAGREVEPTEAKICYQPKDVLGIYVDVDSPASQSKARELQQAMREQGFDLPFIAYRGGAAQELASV

In turn, “ubiquitin (from UniProt P0CG48 1-76) (natural protein)” returned a Kd of 119 µM.

What is called Kd is the equilibrium constant for the complex coming apart.
